Chains of the proteins cited; added tags and fusions are not shown.
UniProt P32245, whole entry: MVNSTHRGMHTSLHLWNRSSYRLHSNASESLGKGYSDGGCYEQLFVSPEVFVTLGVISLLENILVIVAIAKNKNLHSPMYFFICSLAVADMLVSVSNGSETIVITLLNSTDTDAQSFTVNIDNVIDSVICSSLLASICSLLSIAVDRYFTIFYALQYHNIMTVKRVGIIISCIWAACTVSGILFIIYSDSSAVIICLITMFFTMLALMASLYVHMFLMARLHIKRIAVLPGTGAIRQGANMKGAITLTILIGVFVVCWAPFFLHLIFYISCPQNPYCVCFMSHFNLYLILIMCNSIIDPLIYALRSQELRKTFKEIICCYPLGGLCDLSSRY

In US20120178701A1 (PALATIN TECHNOLOGIES, published 2012):

Molecular target: T1, human recombinant melanocortin-4 receptor (human, UniProt P32245 1-332)
T1 construct: whole, on cells; cAMP assays used the whole cells; also called hMC4-R; MC4-R
Test: competitive inhibition of [I125]-NDP-α-MSH, hMC4-R HEK-293 membranes
Experimental: A competitive inhibition binding assay is performed using membrane homogenates prepared from HEK-293 cells that express recombinant hMC4-R, hMC3-R, or hMC5-R, and from B-16 mouse melanoma cells (containing endogenous MC1-R). In some instances, HEK-293 cells that express recombinant hMC1-R were employed. In the examples that follow, all MC3-R, MC4-R and MC5-R values are for human recombinant receptors. […] Membrane homogenates were incubated with 0.2 nM (for hMC4-R) 0.4 nM (for MC3-R and MC5-R) or 0.1 nM (for mouse B16 MC1-R or hMC1-R) [I¹²⁵]-NDP-α-MSH (Perkin Elmer) and increasing concentrations of test peptides of the present invention in buffer containing 25 mM HEPES buffer (pH 7.5) with 100 mM NaCl, 2 mM CaCl₂, 2 mM MgCl₂, 0.3 mM 1,10-phenanthroline, and 0.2% bovine serum albumin. […] Filters were dried and counted in a gamma counter for bound radioactivity. […] Maximal specific binding (100%) was defined as the difference in radioactivity (cpm) bound to cell membranes in the absence and presence of 1 μM NDP-α-MSH. […] Ki values for test peptides of the present invention were determined using Graph-Pad Prism® curve-fitting software.
9.1 Peptides of the following structures were synthesized by the general methods described above, and averaged MC4-R Ki values for peptides were determined as indicated. […] Ki values marked “ND” were not determined.

Ki: 4.29 µM
Binder: RDSFKWK (N-acetyl; D-Phe 4; side-chain lactam Asp2-Lys7; C-terminal amide, also called peptide No. 4) [Ac-Arg-cyclo(Asp-Ser-D-Phe-Lys-Trp-Lys)-NH2]
